Test results taken from patent US6589992B2, “Inhibiting collagen-induced platelet aggregation” (Parker Hughes Institute, priority 1999, dated 2003).

Protein sequences, listed by entry. Tags and fused reporters are not part of them. Lines headed by an entry give the natural chain unless they say otherwise; changes in a name come on top.
UniProt P24604: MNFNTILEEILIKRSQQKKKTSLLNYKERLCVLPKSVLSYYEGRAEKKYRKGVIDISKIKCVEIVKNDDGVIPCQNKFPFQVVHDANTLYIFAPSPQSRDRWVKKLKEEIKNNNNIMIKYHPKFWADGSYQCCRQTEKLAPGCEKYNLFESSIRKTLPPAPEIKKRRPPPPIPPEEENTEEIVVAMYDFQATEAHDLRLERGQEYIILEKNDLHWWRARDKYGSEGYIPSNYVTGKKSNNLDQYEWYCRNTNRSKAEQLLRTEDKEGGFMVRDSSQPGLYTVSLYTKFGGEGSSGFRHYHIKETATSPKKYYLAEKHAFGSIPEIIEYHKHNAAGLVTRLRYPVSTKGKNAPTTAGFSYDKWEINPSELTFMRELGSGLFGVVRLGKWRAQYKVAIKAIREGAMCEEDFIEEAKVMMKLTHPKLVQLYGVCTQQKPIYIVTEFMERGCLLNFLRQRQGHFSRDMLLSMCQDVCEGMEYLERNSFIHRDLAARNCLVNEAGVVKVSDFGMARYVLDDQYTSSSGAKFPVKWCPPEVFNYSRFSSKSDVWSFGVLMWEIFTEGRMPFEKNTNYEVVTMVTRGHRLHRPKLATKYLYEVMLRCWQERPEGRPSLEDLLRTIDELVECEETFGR

Target: recombinant TEC kinase (Mus musculus, UniProt P24604)
Experiment: biochemical

With `C/C(O)=C(\C#N)C(=O)Nc1cc(Br)ccc1Br` [LFM-A13, α-cyano-β-hydroxy-β-methyl-N-(2,5-dibromophenyl)-propenamide] the IC50 was 14.7 µM.
